The values below come from US20060100245A1, “Substituted biphenyl-4-carboxylic acid arylamide analogues” (Neurogen Corporation, priority 2002, published 2006).

Sequences of proteins named here, by UniProt entry; tags and fusion partners are left off.
UniProt Q8NER1, whole entry: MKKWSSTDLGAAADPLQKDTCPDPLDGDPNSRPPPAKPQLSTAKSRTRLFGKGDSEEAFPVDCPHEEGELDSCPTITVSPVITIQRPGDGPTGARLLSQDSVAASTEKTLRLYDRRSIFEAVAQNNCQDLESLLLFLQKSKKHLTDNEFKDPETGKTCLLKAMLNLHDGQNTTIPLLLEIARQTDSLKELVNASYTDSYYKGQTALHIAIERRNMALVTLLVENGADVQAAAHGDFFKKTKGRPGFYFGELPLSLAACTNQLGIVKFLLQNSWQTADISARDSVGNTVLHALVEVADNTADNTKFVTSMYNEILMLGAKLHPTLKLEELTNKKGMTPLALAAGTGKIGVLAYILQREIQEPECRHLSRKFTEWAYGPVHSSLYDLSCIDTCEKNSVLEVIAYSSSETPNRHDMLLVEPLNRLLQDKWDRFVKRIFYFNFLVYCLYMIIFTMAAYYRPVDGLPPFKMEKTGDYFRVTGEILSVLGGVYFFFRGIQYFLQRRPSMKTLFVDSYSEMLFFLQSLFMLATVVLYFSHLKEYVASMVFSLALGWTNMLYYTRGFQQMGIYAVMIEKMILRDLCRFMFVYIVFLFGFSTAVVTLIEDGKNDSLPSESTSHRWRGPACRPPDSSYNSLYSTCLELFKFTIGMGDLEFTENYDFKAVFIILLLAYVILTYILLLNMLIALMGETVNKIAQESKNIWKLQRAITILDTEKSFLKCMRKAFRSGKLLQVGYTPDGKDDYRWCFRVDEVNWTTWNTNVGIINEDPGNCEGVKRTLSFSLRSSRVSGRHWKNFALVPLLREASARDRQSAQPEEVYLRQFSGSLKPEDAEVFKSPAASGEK

This experiment has as its target T1, human capsaicin receptor (VR1) (Homo sapiens, UniProt Q8NER1).
T1 construct: transfected with the pBK-CMV expression construct encoding the full length human capsaicin receptor; expressed in transfected cells
The experiment in a line: Capsaicin receptor binding assay ([3H]RTX competition). An excerpt: This Example illustrates the preparation of VR1-transfected cells and membrane preparations for use in binding assays (Example 5) and functional assays (Example 6).
A cDNA encoding full length human capsaicin receptor (SEQ ID NO: 1, 2 or 3 of U.S. Pat. No. 6,482,611) was subcloned in the plasmid pBK-CMV (Stratagene, La Jolla, Calif.) for recombinant expression in mammalian cells.
Human embryonic kidney (HEK293) cells were transfected with the pBK-CMV expression construct encoding the full length human capsaicin receptor using standard methods. The transfected cells were selected for two weeks in media containing G418 ([…]) to obtain a pool of stably transfected cells. Independent clones were isolated from this pool by limiting dilution to obtain clonal stable cell lines for use in subsequent experiments.
For radioligand binding experiments, cells were seeded in T175 cell culture flasks in media without antibiotics and grown to approximately 90% confluency. The flasks were then washed with PBS and harvested in PBS containing 5 mM EDTA. The cells were pelleted by gentle centrifugation and stored at −80° C. until assayed.
Previously frozen cells were disrupted with the aid of a tissue homogenizer in ice-cold HEPES homogenization buffer (5mM KCl 5, 5.8 mM NaCl, 0.75 mM CaCl2, 2 mM MgCl2, 320 mM sucrose, and 10 mM HEPES pH 7.4). […]

Broadly, the Ki is a measure of affinity in units of concentration, obtained from inhibition or displacement. A higher Ki goes with weaker binding.

`Cc1cccnc1-c1ccc(C(=O)Nc2ccc(C(C)(C)C)cc2)cc1` [Compound 414, N-(4-tert-Butyl-phenyl)-4-(3-methyl-pyridin-2-yl)-benzamide] gave a Ki below 1 µM.
